Earlier results in US7378494B2, “Pituitary adenylate cyclase activating peptide (PACAP) receptor (VPAC2) agonist peptide” (Bayer HealthCare AG, priority 2002, dated 2008).

Conditions: cited from earlier work

For PACAP-27, the half-life in vivo is listed as < 10 min.
